# Molecular target: Mu-type opioid receptor (Homo sapiens, UniProt P35372)
# Chains of the proteins cited; added tags and fusions are not shown.
# UniProt P35372, whole entry: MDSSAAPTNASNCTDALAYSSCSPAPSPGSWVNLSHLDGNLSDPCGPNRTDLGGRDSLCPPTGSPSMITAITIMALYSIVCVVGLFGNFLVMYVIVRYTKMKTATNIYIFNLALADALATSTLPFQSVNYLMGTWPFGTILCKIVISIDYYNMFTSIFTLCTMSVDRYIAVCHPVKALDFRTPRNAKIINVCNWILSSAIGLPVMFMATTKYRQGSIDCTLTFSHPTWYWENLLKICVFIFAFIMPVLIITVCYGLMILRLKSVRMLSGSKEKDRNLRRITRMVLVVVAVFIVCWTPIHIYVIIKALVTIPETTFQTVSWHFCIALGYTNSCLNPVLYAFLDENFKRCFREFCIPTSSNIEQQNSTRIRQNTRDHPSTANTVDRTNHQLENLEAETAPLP
# Assay: Displacement of [3H]DAMGO from human recombinant mu opioid receptor expressed in CHO cells
# Format: cell-based
# Method in brief: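 Radioligand displacement was run on human recombinant receptors expressed in CHO cells. The labels were [3H]DAMGO for MOR and [3H]U69593 for KOR. Values are the mean of two experiments, each in triplicate.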
smiles,measurement,value
CN1CC[C@]23c4c5ccc(O)c4O[C@H]2c2c(c4c(n2C)CCCC4)C[C@@]3(O)C1C5,Ki,25.2 nM

# From ChEMBL document CHEMBL1149288, “Effects of substitution on the pyrrole N atom in derivatives of tetrahydronaltrindole, tetrahydrooxymorphindole, and a related 4,5-epoxyphenylpyrrolomorphinan” (J Med Chem, 2004)
